How the values were obtained:
cathepsin B = cathepsin B (Homo sapiens, UniProt P07858); experiment: Cathepsin B inhibition assay; conditions: at concentrations up to 50 μM
[1] = biological target: T1, trypsin-like activity of purified bovine erythrocyte 20S proteasome (Bos taurus, UniProt Q2TBP0); experiment: Enzyme kinetic assay, trypsin-like activity (Boc-LRR-AMC); format: biochemical; conditions: pH 8; Table 4; inhibitor concentration range in parentheses; read-out: kassoc = kobs/[I] Trypsin-like activity
T1 construct: from tissue; host or cells: bovine erythrocytes (red blood cells)

Sequences of proteins named here, by UniProt entry; tags and fusion partners are left off. A change or cut given only in a name is not applied to a line headed by its entry.
UniProt Q2TBP0: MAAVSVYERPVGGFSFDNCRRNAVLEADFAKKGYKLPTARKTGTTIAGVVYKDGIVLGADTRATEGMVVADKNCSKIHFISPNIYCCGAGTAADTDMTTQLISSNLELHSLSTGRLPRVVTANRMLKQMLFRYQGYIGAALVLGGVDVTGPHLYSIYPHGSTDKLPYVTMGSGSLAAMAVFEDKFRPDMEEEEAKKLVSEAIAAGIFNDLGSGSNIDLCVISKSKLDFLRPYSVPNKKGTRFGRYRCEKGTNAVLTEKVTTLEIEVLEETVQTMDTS

Compound | inhibitory activity against cathepsin B (cathepsin B) | kinact/KI [1]
CC[C@H](C)[C@H](NC(=O)[C@H]([C@@H](C)CC)N(C)C(C)=O)C(=O)N[C@H](C(=O)N[C@@H](CC(C)C)C(=O)[C@@]1(C)CO1)[C@@H](C)O [epoxomicin] | did not display any inhibitory activity | 
CC(C)C[C@H](NC(=O)[C@H](Cc1ccccc1)NC(=O)c1cnccn1)B(O)O [reference compound] |  | 150 M⁻¹ s⁻¹

From US7476650B2, “Enzyme inhibition” (Yale University, priority 1999, dated 2009)
